The values below come from ChEMBL document CHEMBL1136078, “Fundamental structure-activity relationships associated with a new structural class of respiratory syncytial virus inhibitor” (Bioorg Med Chem Lett, 2003).

Only a part of the results on these compounds is given; other tests are left out.

A word on the CC50: it is the concentration giving 50% cytotoxicity. Higher therefore signals lower toxicity to the cells.

In this experiment the test system is HEp-2. The experiment is described as follows: Concentration that causes cytotoxicity to uninfected HEp-2 human lung carcinoma cell line. The experiment is classed as functional.
`CNCCn1c(Cn2nnc3ccccc32)nc2ccccc21` came in with a CC50 of 74.5 µM.

The compound `C[N+](C)(C)CCn1c(Cn2nnc3ccccc32)nc2ccccc21` returned a CC50 of 42.5 µM.

As to `CCN(CC)CCn1c(Cn2nnc3ccccc32)nc2ccccc21`, the CC50 was determined as 216 µM.

In turn, `CCN(CC)CCn1c(Cn2nc3ccccc3n2)nc2ccccc21` had a CC50 of 83.7 µM. This CC50 is about 2.6-fold lower than that of the compound before.

In turn, `c1ccc2nn(Cc3nc4ccccc4n3CCN3CCCCC3)nc2c1` registered a CC50 of 64 µM.

The compound `c1ccc2c(c1)nnn2Cc1nc2ccccc2n1CCN1CCCC1` returned a CC50 of 80 µM.

For `CN1CCC[C@H]1Cn1c(Cn2nnc3ccccc32)nc2ccccc21`, half-maximal cytotoxicity (CC50) was put at 181 µM.

Consider `c1ccc2nn(Cc3nc4ccccc4n3CCN3CCCCCC3)nc2c1`, for which the CC50 came to 23 µM.

Take `CN1CCC[C@@H]1Cn1c(Cn2nnc3ccccc32)nc2ccccc21`: the midpoint of cytotoxicity, the CC50, lay at 24.4 µM.

Consider `CN(C)CCn1c(Cn2nc3ccccc3n2)nc2ccccc21`, for which the midpoint of cytotoxicity, the CC50, lay at 212 µM. This CC50 lies about 8.7-fold higher than the previous one.

For the compound `CN(C)CCn1c(Cn2nnc3ccccc32)nc2ccccc21`, the CC50 is 234 µM.

For `CC(C)N(CCn1c(Cn2nnc3ccccc32)nc2ccccc21)C(C)C`, it took 42.3 µM to reach half-maximal cytotoxicity (CC50).

`c1ccc2c(c1)nnn2Cc1nc2ccccc2n1CCN1CCCCC1` gave a CC50 of 75 µM.

As to `c1ccc2c(c1)nnn2Cc1nc2ccccc2n1CCN1CCCCCC1`, it took 67.1 µM to reach half-maximal cytotoxicity (CC50). This CC50 and that of the compound before are within 1.5-fold of each other.

Compound `c1ccc2nn(Cc3nc4ccccc4n3CCN3CCCC3)nc2c1` showed a CC50 of 127 µM.
